Article PMC4803528

Experiments:
[1] = molecular target: nΔ150 KDM1A (lysine-specific demethylase 1A, residues 151–852) (human) (UniProt O60341); experiment: enzyme inhibition kinetics
[2] = molecular target: full-length histone H3 (H3^1–135), without posttranslational modifications (UniProt P68431); experiment: SPR

Ki [1] [nM] | Ki app (Henderson plot) [1] [nM] | Ki app (IC50 against [E]T) [1] [nM] | Ki app (Morrison equation) [1] [nM] | Kd [2] [nM] | koff [2] [s⁻¹] | kon [2] [M⁻¹ s⁻¹] | Substance
18.9 | 103 | 61.2 | 59.1 | – | – | – | full-length histone H3 (H3^1–135), without posttranslational modifications (from UniProt P68431 2-136) (natural protein)
– | – | – | – | 9.02 | 0.00084 | 93000 | nΔ150 KDM1A (lysine-specific demethylase 1A, residues 151–852) (from UniProt O60341 151-852) (enzyme)
